Test results reported in patent publication US20260327204A1, “DEGRADERS OF CYCLIN-DEPENDENT KINASE 12/13, COMPOSITIONS, AND USES THEREOF” (ZHEJIANG UNIVERSITY, priority 2023, published 2026).

Chains of the proteins cited; added tags and fusions are not shown.
UniProt Q9NYV4, whole entry: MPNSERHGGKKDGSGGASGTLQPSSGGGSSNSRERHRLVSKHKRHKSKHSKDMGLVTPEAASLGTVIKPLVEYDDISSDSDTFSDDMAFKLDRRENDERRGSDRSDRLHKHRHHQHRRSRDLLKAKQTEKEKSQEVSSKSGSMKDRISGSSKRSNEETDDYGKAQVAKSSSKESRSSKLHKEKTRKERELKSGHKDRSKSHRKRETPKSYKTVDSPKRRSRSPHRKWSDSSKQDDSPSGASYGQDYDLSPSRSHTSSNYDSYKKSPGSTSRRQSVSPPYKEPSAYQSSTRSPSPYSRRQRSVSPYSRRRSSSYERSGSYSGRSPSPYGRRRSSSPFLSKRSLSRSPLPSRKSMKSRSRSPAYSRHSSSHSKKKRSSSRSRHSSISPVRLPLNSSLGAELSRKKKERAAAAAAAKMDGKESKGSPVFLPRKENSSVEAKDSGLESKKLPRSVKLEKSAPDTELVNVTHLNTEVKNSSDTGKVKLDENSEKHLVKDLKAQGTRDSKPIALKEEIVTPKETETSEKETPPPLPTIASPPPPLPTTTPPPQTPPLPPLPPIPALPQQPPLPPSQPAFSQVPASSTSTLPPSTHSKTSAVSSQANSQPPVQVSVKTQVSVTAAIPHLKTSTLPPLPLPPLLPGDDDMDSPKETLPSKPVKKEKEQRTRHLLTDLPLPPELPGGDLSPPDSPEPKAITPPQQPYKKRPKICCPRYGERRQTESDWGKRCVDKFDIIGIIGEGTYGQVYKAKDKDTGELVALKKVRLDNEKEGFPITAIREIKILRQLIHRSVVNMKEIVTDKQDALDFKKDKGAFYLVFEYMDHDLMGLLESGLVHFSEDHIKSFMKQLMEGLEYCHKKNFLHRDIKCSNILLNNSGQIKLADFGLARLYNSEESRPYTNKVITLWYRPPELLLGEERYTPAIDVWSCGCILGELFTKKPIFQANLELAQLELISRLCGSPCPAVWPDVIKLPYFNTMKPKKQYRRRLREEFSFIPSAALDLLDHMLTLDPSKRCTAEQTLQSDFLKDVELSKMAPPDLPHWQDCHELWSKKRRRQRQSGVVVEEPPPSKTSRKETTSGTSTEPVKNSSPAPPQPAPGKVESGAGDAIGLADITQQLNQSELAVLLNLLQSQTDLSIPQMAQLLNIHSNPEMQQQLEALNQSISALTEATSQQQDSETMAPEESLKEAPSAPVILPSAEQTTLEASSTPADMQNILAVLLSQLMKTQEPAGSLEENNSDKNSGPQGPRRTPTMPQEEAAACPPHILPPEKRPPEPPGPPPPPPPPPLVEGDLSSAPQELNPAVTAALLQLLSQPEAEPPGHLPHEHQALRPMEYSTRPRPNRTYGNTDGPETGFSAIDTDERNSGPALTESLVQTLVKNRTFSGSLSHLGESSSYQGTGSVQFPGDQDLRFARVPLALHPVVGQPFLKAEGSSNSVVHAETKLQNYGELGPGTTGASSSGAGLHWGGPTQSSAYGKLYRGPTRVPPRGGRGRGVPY
UniProt Q14004, whole entry: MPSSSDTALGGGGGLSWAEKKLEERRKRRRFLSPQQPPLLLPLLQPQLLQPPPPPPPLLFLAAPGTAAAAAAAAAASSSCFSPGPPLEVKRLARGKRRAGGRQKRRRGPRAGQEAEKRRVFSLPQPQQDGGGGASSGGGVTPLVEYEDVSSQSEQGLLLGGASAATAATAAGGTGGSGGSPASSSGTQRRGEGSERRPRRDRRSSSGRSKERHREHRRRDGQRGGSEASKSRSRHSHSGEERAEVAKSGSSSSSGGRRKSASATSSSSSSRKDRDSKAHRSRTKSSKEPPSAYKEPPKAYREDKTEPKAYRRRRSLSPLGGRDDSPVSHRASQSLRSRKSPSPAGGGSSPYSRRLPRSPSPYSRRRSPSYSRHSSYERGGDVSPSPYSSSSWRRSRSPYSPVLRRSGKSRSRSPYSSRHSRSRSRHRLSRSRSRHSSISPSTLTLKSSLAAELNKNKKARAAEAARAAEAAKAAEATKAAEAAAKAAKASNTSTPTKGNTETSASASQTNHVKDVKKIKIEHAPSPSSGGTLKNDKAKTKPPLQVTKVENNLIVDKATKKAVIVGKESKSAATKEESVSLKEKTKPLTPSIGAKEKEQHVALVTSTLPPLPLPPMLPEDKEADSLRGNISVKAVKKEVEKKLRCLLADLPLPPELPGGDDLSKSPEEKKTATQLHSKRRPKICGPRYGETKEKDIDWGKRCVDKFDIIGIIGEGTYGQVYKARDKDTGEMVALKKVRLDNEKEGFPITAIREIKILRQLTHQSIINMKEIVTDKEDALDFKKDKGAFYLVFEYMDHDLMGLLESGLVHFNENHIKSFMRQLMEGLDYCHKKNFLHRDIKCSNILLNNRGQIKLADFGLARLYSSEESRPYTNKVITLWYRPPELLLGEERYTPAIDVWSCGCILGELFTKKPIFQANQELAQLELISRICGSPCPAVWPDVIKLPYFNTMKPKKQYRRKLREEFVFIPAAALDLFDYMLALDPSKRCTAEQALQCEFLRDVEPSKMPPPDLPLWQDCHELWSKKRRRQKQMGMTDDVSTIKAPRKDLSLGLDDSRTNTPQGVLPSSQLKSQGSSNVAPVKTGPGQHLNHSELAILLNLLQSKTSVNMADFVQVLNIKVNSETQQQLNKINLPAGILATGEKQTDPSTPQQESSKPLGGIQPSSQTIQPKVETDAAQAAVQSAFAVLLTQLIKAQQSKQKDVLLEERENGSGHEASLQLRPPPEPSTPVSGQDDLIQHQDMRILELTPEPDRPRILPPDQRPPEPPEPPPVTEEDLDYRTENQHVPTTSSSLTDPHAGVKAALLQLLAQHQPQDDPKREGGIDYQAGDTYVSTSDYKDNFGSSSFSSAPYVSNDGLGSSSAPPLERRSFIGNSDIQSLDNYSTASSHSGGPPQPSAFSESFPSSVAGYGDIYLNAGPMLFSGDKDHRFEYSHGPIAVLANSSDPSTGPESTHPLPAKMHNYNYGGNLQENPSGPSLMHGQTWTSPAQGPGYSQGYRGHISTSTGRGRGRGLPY
UniProt O75909, whole entry partner: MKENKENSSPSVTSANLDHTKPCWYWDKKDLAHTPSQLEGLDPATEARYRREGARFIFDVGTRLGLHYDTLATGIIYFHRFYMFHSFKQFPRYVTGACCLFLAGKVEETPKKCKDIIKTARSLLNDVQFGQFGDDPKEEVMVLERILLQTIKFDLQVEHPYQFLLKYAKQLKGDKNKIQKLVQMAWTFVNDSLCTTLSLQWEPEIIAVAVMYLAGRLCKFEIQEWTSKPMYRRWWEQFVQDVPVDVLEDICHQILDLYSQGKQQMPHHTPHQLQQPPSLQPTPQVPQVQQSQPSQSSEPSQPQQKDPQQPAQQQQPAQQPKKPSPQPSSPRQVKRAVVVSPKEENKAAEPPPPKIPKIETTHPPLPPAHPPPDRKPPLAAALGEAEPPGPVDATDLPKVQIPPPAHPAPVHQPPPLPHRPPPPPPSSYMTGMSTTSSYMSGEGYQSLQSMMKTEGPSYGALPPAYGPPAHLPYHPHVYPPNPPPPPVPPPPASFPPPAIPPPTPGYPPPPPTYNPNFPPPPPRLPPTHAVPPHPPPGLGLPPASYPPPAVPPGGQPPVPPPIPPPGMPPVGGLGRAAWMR

Tests used:
[1] = target: CDK12 (Homo sapiens, UniProt Q9NYV4); test: Western blot degradation of CDK12 (Example 2); details: read-out: CDK12 degradation Activity; DC50 classes; cell line not given
Experimental: (§1) Western blot was used to determine the degradation of CDK12/13 protein in leukemia cells KASUMI-1, MV4-11, and Jurkat. The two compounds with the best degradation effects were further validated for their ability to degrade CDK12/13 protein in breast cancer cells MDA-MB-231 using a concentration gradient.
(§2) • Cell lines: KASUMI-1, MV4-11, Jurkat, or MDA-MB-231 • Culture medium: DMEM/RIPM-1640+10% Hyclone serum • Compound dissolution method: Compounds were dissolved in DMSO to prepare a 50 mM stock solution, and then diluted to the corresponding concentrations.
(§3) (1) In vitro cell culture: The selected cells were cultured in a 37 °C constant temperature incubator with 5% CO2. Once the cell density reached 70-90%, they were passaged for subsequent experiments.
(§4) (2) Cell seeding: Cells were digested, and the cell suspension was transferred to a 1.5 mL Eppendorf tube. After centrifugation at 1,000 rpm for 5 min, the cells were resuspended in 2 mL of culture medium and counted. The cell suspension was seeded in a 24-well plate at a density of 200,000 cells per well and allowed to adhere for 8-12 h.
(§5) (3) Compound treatment: The 50 mM compound stock solution was diluted with cell culture medium to a final concentration of 0.01 μM-3 μM. Cells were incubated in a 37 °C incubator with 5% CO2 for 3 h-48 h. […]
(§6) At the end of the treatment time, the cells were collected and washed once with PBS. […] After centrifugation at 12,000 rpm at room temperature for 30 min, the supernatant was transferred to a new EP tube for protein quantification.
(§7) The exposure results were quantitatively analyzed using Image J software. First, the grayscale values of the bands were calculated using Image J. Then, the grayscale value of the target protein was divided by the grayscale value of the internal reference protein for normalization. […]
(§8) In the figures, CDK12 and CDK13 are the target proteins under study, and β-Actin and GAPDH are the internal reference proteins. Internal reference proteins are used to indicate the total protein amount in each experimental group for quantitative analysis.

[2] = target: CDK13 (Homo sapiens, UniProt Q14004); test: Western blot degradation of CDK13 (Example 2); details: read-out: CDK13 degradation Activity; DC50 classes; cell line not given
Experimental: as §1, §2, §3, §4, §5, §6, §7, §8

| SMILES | DC50 [1] [µM] | DC50 [2] [µM] |
| --- | --- | --- |
| N#Cc1ccc(N[C@H]2CC[C@H](N3C(=O)N(Cc4ccccc4)Cc4cc(-c5ccc(OCCOCCOCCNc6cccc7c6C(=O)N(C6CCC(=O)NC6=O)C7=O)nc5)ccc43)CC2)nc1 (stereo partly drawn) | 1 to 3 | 1 to 3 |
| Cc1ncsc1-c1ccc([C@H](C)NC(=O)[C@@H]2C[C@@H](O)CN2C(=O)[C@@H](NC(=O)CN2CCN(c3ccc(-c4ccc5c(c4)CN(Cc4ccccc4)C(=O)N5[C@H]4CC[C@H](Nc5ccc(C#N)cn5)CC4)cn3)CC2)C(C)(C)C)cc1 | 1 to 3 | 1 to 3 |
| N#Cc1ccc(N[C@H]2CC[C@H](N(C(=O)NCc3ccccc3)c3ccc(-c4ccc(OCCOCCOCCOCCNc5cccc6c5C(=O)N(C5CCC(=O)NC5=O)C6=O)nc4)cc3)CC2)nc1 (stereo partly drawn) | 1 to 3 | 3 to 10 |
